One assay has as its target T1, KRAS^wt/mantGTP complex (Homo sapiens, UniProt P01116).
T1 construct: 6xHis (6H) (N); TEV cleavage site (N); host or cells: E. coli BL21
Kind of assay: Nucleotide release assay (mantGTP displacement). The assay is classed as biochemical. To be noted: 1 μM KRAS^wt/mantGTP, 10 μM peptide, 20 mM Tris-HCl pH 7.5, 50 mM NaCl, 1 mM MgCl2, 1 mM DTT; emission 430 nm over 30 min; intrinsic half-life about 7 min.

The target in a further assay is T2, KRAS^wt (Homo sapiens, UniProt P01116).
T2 construct: 6xHis (6H) (N); TEV cleavage site (N); host or cells: E. coli BL21
As to the kind of experiment: Fluorescence anisotropy titration with KRAS^wt. Type of assay: binding. To be noted: 15 nM peptide without Pd(II), increasing KRAS, Tris-HCl 20 mM pH 7.5, 100 mM NaCl, 25 °C.

Entries after “also recorded” stand apart in the source; their conditions may differ.

On to TMR-Ahx-RRFFGIHLTNHLKTEEGN [αH-His2], for which the “half-life of the KRAS^wt/mantGTP complex” value on KRAS^wt/mantGTP complex is listed as “≈ 5 min”. The “binding to KRAS (change of TMR fluorescence anisotropy), in words” value at KRAS^wt is given as “low binding affinity; also recorded: no significant binding”.

Values taken from publication PMC9814687, “Controlling oncogenic KRAS signaling pathways with a Palladium-responsive peptide” (Communications Chemistry, 2022).
